Data from US10196693B2, “Method for predicting response to breast cancer therapeutic agents and method of treatment of breast cancer” (MEDIVATION PROSTATE THERAPEUTICS, LLC, priority 2014, dated 2019).

Tests used:
MDA-MB-436 cells = assay: cells; conditions: Homo sapiens, MDA-MB-436, read-out: Paclitaxel IC50
MDA-MB-453 cells = assay: cells; conditions: Homo sapiens, MDA-MB-453, read-out: Paclitaxel IC50

In the case of `CC(=O)O[C@H]1C(=O)[C@@]2(C)[C@H]([C@H](OC(=O)c3ccccc3)[C@]3(O)C[C@H](OC(=O)[C@H](O)[C@@H](NC(=O)c4ccccc4)c4ccccc4)C(C)=C1C3(C)C)[C@]1(OC(C)=O)CO[C@@H]1C[C@@H]2O` [paclitaxel], the IC50 (MDA-MB-436 cells) is reported as 6.7 nM and the IC50 (MDA-MB-453 cells) is reported as 20.7 nM.
